The target in assay [1] is T1, Adenosine receptor A2b (Homo sapiens, UniProt P29275).
T1 sequence (P29275 whole entry): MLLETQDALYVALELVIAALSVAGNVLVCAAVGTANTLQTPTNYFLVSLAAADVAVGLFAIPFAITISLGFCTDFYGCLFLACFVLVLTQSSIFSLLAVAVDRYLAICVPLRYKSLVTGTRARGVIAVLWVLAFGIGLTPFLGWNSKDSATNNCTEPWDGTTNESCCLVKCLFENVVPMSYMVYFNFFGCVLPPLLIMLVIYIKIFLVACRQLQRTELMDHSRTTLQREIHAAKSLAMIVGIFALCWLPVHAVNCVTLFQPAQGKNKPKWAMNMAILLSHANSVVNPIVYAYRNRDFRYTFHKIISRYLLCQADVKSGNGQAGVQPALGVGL
The assay can be described thus: Inhibition of 50 uM 5`-(N-ethylcarboxamido)adenosine induced cAMP production in CHO cell line expressing human Adenosine A2B receptor. The assay is classed as cell-based.

By UniProt entry, the sequences of proteins in these tests, tags left out.
UniProt P25099, whole entry: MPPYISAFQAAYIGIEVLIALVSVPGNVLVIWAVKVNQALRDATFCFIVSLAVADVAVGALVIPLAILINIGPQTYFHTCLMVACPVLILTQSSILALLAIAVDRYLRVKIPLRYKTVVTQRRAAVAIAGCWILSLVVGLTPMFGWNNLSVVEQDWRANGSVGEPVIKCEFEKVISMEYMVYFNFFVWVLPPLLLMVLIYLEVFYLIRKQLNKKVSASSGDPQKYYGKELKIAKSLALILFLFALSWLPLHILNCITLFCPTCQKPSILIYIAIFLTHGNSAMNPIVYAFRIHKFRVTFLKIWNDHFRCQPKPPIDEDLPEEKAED

In assay [2] the target is T1, Adenosine receptor A2b. Nature of the assay: pA2 value at human Adenosine A2B receptor from Schild plots with slopes approaching unity. As to conditions: read-out: pA2 (converted).
Assay [3] has as its target Adenosine receptor A1 (Rattus norvegicus, UniProt P25099).
Assay [4] in a line: Ratio against rat A2A receptor and Human A3 receptor.
Assay [5] can be described thus: Ratio against rat A1 receptor and Human A3 receptor.

In assay [1], `Nc1nc2ccc(Cl)cc2c2nc(-c3ccco3)nn12` [CGS-15943] yielded an IC50 of 1200 nM. In addition, the Kb in assay [2] is 10 nM.

Compound `Nc1ccc(CC(=O)Nc2nc3ccc(Cl)cc3c3nc(-c4ccco4)nn23)cc1` registered an inhibition constant Ki in assay [3] of 24.9 nM.

For the compound `O=C(CCc1ccccc1)Nc1nc2ccc(Cl)cc2c2nc(-c3ccco3)nn12`, the results for the Selectivity ratio in assay [4] and in assay [5] were 1.6 and 1.9, respectively.

The values above are taken from ChEMBL document CHEMBL1131038, “Derivatives of the triazoloquinazoline adenosine antagonist (CGS 15943) having high potency at the human A2B and A3 receptor subtypes” (J Med Chem, 1998).
